Data from patent US20240408216A1, “PROTEIN INHIBITOR OR DEGRADING AGENT, PHARMACEUTICAL COMPOSITION CONTAINING SAME AND PHARMACEUTICAL USE” (JING MEDICINE TECHNOLOGY (SHANGHAI) LTD., priority 2021, published 2024).
Read-outs that look alike come from different tables or passages of the source.

The chains behind the UniProt entries cited, without tags or fusion partners. A line that says so, or that is headed by a name, gives the form on record, which may keep a tag or linker. Residues count along the entry.
UniProt P00533, with tags, fused parts or gaps C797S/DEL746-750: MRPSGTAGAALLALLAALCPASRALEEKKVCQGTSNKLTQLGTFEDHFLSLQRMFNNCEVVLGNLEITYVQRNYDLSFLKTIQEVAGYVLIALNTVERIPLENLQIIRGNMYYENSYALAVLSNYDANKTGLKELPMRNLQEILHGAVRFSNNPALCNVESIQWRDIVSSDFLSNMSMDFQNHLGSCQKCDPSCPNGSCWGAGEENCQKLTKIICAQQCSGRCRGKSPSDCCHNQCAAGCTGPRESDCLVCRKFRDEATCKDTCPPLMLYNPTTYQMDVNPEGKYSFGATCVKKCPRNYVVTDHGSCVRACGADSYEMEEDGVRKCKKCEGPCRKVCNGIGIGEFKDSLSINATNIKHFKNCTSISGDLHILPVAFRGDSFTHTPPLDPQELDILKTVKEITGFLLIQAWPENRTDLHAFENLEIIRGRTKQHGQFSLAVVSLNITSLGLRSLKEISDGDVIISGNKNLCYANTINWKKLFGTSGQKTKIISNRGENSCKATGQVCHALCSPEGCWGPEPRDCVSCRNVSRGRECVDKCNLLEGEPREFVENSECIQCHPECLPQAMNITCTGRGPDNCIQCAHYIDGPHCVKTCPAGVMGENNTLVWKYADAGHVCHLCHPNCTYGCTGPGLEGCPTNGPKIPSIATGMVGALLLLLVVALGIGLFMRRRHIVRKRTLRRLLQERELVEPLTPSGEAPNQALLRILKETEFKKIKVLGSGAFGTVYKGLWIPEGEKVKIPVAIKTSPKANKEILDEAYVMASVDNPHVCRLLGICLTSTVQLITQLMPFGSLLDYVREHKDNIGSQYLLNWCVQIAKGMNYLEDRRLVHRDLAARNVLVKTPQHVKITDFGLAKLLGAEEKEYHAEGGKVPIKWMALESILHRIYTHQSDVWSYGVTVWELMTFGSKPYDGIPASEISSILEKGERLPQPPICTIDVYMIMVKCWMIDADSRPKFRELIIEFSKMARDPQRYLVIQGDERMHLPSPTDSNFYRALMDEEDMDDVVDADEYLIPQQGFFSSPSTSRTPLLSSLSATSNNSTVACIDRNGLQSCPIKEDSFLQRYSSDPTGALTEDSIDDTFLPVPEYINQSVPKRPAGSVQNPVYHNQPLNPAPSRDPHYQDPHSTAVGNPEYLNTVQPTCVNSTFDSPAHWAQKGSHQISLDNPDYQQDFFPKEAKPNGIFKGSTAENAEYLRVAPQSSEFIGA
UniProt P00533, 25-1210 T790M/C797S/L858R limits assumed: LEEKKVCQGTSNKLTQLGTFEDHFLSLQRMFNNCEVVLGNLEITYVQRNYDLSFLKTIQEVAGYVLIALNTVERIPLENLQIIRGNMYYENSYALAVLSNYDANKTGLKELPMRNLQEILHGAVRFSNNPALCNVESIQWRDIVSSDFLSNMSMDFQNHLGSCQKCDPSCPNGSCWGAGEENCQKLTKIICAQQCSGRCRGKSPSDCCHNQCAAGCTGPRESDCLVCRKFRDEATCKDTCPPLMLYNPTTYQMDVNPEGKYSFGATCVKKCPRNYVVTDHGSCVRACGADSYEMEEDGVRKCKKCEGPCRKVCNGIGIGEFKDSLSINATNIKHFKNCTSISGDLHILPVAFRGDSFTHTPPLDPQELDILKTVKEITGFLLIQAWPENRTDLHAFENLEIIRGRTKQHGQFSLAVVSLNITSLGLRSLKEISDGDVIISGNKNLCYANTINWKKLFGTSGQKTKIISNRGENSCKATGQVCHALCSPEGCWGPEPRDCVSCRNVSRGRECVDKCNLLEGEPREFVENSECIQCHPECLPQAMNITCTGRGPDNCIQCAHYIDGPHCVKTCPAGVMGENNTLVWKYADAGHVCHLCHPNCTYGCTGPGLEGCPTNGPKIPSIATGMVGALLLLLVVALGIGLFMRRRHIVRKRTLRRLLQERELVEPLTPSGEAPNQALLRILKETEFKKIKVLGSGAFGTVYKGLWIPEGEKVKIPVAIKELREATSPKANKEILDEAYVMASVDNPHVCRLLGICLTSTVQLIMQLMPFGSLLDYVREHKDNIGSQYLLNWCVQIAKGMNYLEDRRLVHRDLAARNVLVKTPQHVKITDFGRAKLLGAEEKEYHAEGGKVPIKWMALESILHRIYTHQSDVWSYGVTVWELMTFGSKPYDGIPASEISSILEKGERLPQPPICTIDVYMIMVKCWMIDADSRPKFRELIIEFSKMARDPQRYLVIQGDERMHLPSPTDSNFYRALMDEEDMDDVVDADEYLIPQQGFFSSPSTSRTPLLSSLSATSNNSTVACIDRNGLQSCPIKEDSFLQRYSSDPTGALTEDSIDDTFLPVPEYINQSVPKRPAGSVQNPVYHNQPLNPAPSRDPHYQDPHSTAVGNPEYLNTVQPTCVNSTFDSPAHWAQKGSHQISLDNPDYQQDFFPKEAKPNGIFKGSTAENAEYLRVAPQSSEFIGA
UniProt P00533, whole entry L858R: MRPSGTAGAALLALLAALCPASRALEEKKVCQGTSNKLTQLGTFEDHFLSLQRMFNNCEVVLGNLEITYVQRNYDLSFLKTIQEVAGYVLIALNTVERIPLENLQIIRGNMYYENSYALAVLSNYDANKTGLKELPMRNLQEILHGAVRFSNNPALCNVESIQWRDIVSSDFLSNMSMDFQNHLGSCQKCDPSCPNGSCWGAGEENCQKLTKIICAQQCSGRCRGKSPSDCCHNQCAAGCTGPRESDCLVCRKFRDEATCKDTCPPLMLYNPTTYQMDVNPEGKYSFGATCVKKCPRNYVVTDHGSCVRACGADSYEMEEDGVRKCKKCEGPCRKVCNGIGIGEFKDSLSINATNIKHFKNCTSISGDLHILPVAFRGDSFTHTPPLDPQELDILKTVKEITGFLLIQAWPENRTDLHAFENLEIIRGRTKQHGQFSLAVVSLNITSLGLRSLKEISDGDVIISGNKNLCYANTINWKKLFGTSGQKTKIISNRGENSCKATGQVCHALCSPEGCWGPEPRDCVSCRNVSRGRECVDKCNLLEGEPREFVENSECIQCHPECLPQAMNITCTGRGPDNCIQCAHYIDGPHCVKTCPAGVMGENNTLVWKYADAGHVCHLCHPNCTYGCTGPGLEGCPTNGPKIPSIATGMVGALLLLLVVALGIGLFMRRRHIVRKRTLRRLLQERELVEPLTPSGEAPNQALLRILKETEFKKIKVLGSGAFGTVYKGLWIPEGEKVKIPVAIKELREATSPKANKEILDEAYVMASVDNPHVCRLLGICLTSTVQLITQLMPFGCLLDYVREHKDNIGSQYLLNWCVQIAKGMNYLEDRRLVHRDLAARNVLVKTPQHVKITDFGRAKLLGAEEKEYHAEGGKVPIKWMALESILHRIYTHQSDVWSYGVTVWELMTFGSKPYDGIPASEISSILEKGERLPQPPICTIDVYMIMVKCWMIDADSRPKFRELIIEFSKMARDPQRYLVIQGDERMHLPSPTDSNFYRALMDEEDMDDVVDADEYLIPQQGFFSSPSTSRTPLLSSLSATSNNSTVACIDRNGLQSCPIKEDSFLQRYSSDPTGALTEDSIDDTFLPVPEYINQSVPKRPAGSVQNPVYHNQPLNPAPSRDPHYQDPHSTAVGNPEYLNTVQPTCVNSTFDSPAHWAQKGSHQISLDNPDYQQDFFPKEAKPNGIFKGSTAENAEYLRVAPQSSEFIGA
UniProt P00533, whole entry C797S/L858R: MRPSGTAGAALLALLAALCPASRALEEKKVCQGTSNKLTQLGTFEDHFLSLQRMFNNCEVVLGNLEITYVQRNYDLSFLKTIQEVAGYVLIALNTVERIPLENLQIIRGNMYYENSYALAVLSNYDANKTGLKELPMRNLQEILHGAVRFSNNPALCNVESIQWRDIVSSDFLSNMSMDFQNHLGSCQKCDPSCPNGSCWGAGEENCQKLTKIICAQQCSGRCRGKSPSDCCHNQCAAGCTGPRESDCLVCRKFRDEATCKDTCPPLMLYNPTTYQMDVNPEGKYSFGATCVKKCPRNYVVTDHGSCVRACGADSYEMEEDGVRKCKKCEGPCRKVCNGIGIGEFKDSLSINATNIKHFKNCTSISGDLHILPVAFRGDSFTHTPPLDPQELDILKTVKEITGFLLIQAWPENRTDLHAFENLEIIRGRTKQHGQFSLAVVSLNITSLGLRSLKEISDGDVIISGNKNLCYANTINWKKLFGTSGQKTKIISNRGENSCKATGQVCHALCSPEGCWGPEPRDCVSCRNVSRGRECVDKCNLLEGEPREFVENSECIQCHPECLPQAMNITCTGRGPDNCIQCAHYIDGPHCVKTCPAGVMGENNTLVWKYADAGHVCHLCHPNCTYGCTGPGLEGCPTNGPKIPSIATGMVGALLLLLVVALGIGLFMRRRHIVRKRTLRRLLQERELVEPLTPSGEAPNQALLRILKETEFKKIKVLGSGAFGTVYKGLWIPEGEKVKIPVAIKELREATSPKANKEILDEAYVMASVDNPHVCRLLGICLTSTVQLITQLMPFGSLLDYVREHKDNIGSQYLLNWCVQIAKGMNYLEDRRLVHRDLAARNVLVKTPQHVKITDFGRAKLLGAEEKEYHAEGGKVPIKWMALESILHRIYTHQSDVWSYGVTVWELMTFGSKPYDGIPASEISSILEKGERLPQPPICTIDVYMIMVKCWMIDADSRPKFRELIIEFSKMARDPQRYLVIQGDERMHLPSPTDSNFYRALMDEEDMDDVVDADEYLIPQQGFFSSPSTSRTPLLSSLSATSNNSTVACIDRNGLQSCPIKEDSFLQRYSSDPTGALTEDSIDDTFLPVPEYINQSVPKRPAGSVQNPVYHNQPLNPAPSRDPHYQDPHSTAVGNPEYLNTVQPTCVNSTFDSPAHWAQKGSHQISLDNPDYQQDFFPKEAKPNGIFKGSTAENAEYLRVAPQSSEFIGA
UniProt P00533, with tags, fused parts or gaps DEL746-750: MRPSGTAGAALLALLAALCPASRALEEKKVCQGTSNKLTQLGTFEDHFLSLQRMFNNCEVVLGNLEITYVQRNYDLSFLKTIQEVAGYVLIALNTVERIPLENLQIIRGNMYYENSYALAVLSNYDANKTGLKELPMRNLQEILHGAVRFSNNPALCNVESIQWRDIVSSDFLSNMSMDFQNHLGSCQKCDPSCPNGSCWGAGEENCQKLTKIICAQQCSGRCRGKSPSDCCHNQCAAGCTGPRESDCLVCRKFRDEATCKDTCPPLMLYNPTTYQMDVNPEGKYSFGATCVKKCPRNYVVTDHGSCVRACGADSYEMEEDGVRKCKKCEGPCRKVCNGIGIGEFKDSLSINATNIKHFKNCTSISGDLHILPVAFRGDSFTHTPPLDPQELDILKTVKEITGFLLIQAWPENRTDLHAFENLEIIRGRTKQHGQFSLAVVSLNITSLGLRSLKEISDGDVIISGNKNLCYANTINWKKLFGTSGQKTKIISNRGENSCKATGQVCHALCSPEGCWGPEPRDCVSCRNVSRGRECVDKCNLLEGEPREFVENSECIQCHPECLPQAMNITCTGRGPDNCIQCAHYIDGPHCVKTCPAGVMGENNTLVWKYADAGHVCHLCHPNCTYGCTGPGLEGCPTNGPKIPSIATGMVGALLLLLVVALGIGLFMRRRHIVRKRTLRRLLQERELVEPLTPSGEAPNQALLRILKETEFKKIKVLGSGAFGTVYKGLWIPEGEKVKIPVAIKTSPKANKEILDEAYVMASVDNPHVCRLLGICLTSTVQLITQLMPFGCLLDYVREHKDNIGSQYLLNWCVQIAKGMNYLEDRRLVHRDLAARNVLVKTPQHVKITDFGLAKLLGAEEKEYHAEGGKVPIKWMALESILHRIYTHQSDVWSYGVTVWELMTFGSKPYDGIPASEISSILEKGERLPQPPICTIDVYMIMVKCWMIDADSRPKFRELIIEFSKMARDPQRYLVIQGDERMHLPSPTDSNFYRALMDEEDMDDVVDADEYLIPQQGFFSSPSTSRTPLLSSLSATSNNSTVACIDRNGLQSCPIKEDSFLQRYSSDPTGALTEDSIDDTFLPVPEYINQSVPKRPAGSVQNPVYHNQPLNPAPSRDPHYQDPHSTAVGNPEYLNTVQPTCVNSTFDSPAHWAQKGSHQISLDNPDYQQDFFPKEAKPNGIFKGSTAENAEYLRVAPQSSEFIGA

Columns and labels:
[1] = tested on: BaF3 (EGFR L858R/T790M/C797S); assay: Cell proliferation IC50 assay (Cell Titer GLO), BaF3 LTC cells; type: cell-based, mouse
BaF3 (EGFR Del19/C797S) = BaF3 (EGFR Del19/C797S) (Homo sapiens, UniProt P00533, C797S, cells depend on it, form not given); assay: Cell proliferation IC50 assay (Cell Titer GLO), BaF3 DC cells; type: cell-based, mouse
BaF3 (EGFR WT) = assay: Cell proliferation IC50 assay (Cell Titer GLO), BaF3 WT cells; type: cell-based, mouse
A431 = assay: Cell proliferation IC50 assay (Cell Titer GLO), A431 cells; type: cell-based; details: read-out: A431 IC50, Table 6, A431, 72 h
[2] = tested on: BaF3 (EGFR Del19/T790M/C797S); assay: Cell proliferation IC50 assay (Cell Titer GLO), BaF3 DTC cells; type: cell-based, mouse; details: read-out: DTC IC50, Table 6, 72 h, tested form: HCl
BaF3 (EGFR L858R/C797S) = BaF3 (EGFR L858R/C797S) (Homo sapiens, UniProt P00533, C797S/L858R, cells depend on it); assay: Cell proliferation IC50 assay (Cell Titer GLO), BaF3 LC cells; type: cell-based, mouse; details: read-out: LC IC50, Table 7, 72 h, tested form: HCl
BaF3 (EGFR Del19) = BaF3 (EGFR Del19) (Homo sapiens, UniProt P00533, cells depend on it, form not given); assay: Cell proliferation IC50 assay (Cell Titer GLO), BaF3 D cells; type: cell-based, mouse; details: read-out: D IC50, Table 7, 72 h, tested form: HCl
BaF3 (EGFR L858R) = BaF3 (EGFR L858R) (Homo sapiens, UniProt P00533, L858R, cells depend on it); assay: Cell proliferation IC50 assay (Cell Titer GLO), BaF3 L cells; type: cell-based, mouse; details: read-out: L IC50, Table 7, 72 h, tested form: HCl
DT = assay: Cell proliferation IC50 assay (Cell Titer GLO), DT cells; details: read-out: DT IC50; Table 7; DT cells (BaF3 with EGFR mutant), 72 h; tested form: HCl
LT = assay: Cell proliferation IC50 assay (Cell Titer GLO), LT cells; details: read-out: LT IC50; Table 7; LT cells (BaF3 with EGFR mutant), 72 h; tested form: HCl
human EGFR-DTC = assay: EGFR protein abundance assay (Western blotting), EGFR-DTC; details: Ba/F3 cells expressing human EGFR-DTC, 24 h, Western blot, tested form: HCl
human EGFR-LTC = human EGFR-LTC (Homo sapiens, UniProt P00533, C797S/L858R/T790M); assay: EGFR protein abundance assay (Western blotting), EGFR-LTC; details: Ba/F3 cells expressing human EGFR-LTC, 24 h, Western blot, tested form: HCl
human EGFR-DC = assay: EGFR protein abundance assay (Western blotting), EGFR-DC; details: Ba/F3 cells expressing human EGFR-DC, 24 h, Western blot, tested form: HCl
[3] = read-out: LTC IC50, Table 6, 72 h, tested form: HCl
[4] = read-out: DC IC50, Table 6, 72 h, tested form: HCl
[5] = read-out: WT IC50, Table 6, 10 ng/ml EGF, 72 h, tested form: HCl
[6] = read-out: LTC IC50, Table 6, 72 h
[7] = read-out: DC IC50, Table 6, 72 h
[8] = read-out: WT IC50, Table 6, 10 ng/ml EGF, 72 h

Structure (SMILES)	IC50 [1, 3]	GI50 (BaF3 (EGFR Del19/C797S); [4])	IC50 (BaF3 (EGFR WT); [5])	IC50 (A431; tested form: HCl)	IC50 [2]	also measured
CCc1cc(Nc2ncc(-c3cnn(C)c3)c(Nc3ccccc3P(C)(C)=O)n2)c(OC)cc1N1CCC(N2CCN(CCOc3ccc4c(c3)CN(C3CCC(=O)NC3=O)C4=O)CC2)CC1 (stereo not drawn)	> 4000 nM	1.1 nM	506 nM	1220 nM		
CCOc1cc(N2CCC(N3CCN(CCC#Cc4cccc5c4CN(C4CCC(=O)NC4=O)C5=O)CC3)CC2)c(CC)cc1Nc1ncc(Cl)c(Nc2ccccc2P(C)(C)=O)n1 (stereo not drawn)	53.1 nM	10.1 nM	> 4000 nM	3770 nM		
CCc1cc(Nc2ncc(Cl)c(Nc3ccccc3P(C)(C)=O)n2)c(OC)cc1N1CCC(N2CCC3(CC(Oc4cccc5c4CN(C4CCC(=O)NC4=O)C5=O)C3)C2)CC1 (single isomer, unassigned) [E183]	9.6 nM	1 nM	1010 nM	1540 nM	3.16 nM	
CCc1cc(Nc2ncc(Cl)c(Nc3ccccc3P(C)(C)=O)n2)c(OC)cc1N1CCC(N2CCN(CCCCOc3ccc4c(c3)CN(C3CCC(=O)NC3=O)C4=O)CC2)CC1 (stereo not drawn)	22.8 nM	10 nM	1020 nM	1020 nM	15.5 nM	
CCc1cc(Nc2ncc(-n3cc(C)nn3)c(Nc3ccccc3P(C)(C)=O)n2)c(OC)cc1N1CCC(N2CCN(CCOc3ccc4c(c3)CN(C3CCC(=O)NC3=O)C4=O)CC2)CC1 (stereo not drawn)						IC50 [1, 6]: > 4000 nM; GI50 (BaF3 (EGFR Del19/C797S); [7]): 0.9 nM; IC50 (BaF3 (EGFR WT); [8]): 829 nM; IC50 (A431): > 4000 nM
CCc1cc(Nc2ncc(Cl)c(Nc3ccccc3P(C)(C)=O)n2)c(OC)cc1N1CCC(N2CCC3(CC(Oc4cccc5c4CN(C4CCC(=O)NC4=O)C5=O)C3)C2)CC1 (single isomer, unassigned) [E182]	41 nM	6 nM	1080 nM	1330 nM	3.87 nM	
CCc1cc(Nc2ncc(Cl)c(Nc3ccccc3P(C)(C)=O)n2)c(OC)cc1N1CCC(N2CC[C@]3(C2)C[C@H](Oc2cccc4c2CN(C2CCC(=O)NC2=O)C4=O)C3)CC1 (stereo partly drawn)	110 nM	3.4 nM	2650 nM	1090 nM		
CCc1cc(Nc2ncc(-c3cnn(C)c3)c(Nc3ccccc3P(C)(C)=O)n2)c(OC)cc1N1CCN(C2CCN(C(C)(C)COc3cc4c(cc3F)C(=O)N(C3CCC(=O)NC3=O)C4)CC2)CC1 (stereo not drawn)						IC50 [1, 6]: > 4000 nM; GI50 (BaF3 (EGFR Del19/C797S); [7]): 8.6 nM; IC50 (BaF3 (EGFR WT); [8]): 1360 nM; IC50 (A431): > 4000 nM
CCc1cc(Nc2ncc(Cl)c(Nc3ccccc3P(C)(C)=O)n2)c(OC)cc1N1CCC(N2CCN(CCCCCc3ccc4c(c3)c(N3CCC(=O)NC3=O)nn4C)CC2)CC1	921 nM	122 nM	3980 nM	2090 nM		
CCc1cc(Nc2ncc(Cl)c(Nc3ccccc3P(C)(C)=O)n2)c(OC)cc1N1CCC(N2CCN(CCOc3ccc4c(c3)CN(C3CCC(=O)NC3=O)C4=O)CC2)CC1 (stereo not drawn)	70.6 nM	13.7 nM	2500 nM	1100 nM		
CCc1cc(Nc2ncc(Cl)c(Nc3ccccc3P(C)(C)=O)n2)c(OC)cc1N1CCC(N2CCC3(CC(Oc4cccc5c4CN(C4CCC(=O)NC4=O)C5=O)C3)C2)CC1 (single isomer, unassigned) [E184]	128 nM	20.5 nM	1030 nM	1780 nM		
CCc1cc(Nc2ncc(Cl)c(Nc3ccccc3P(C)(C)=O)n2)c(OC)cc1N1CCC(N2CC[C@]3(C2)C[C@@H](Oc2cccc4c2CN(C2CCC(=O)NC2=O)C4=O)C3)CC1 (stereo partly drawn)	28.2 nM		1470 nM	1690 nM	3.98 nM	GI50 (BaF3 (EGFR Del19/C797S); read-out: DC IC50, Table 7, 72 h, tested form: HCl): 0.4 nM; GI50 (BaF3 (EGFR L858R/C797S)): 3.6 nM; GI50 (BaF3 (EGFR Del19)): 0.3 nM; GI50 (BaF3 (EGFR L858R)): 1.4 nM; IC50 (DT): 3 nM; IC50 (LT): 2.8 nM; EGFR-DTC Dmax (human EGFR-DTC): 97%; DC50 (human EGFR-DTC; read-out: EGFR-DTC DC50): 1.06 nM; EGFR-LTC Dmax (human EGFR-LTC): 95%; DC50 (human EGFR-LTC; read-out: EGFR-LTC DC50): 2.6 nM; EGFR-DC Dmax (human EGFR-DC): 97%; DC50 (human EGFR-DC; read-out: EGFR-DC DC50): 1.12 nM
CCc1cc(Nc2ncc(Cl)c(Nc3ccccc3P(C)(C)=O)n2)c(OC)cc1N1CCC(N2CCC3(CC(Oc4cccc5c4CN(C4CCC(=O)NC4=O)C5=O)C3)C2)CC1 (single isomer, unassigned) [E181]	6.3 nM	0.7 nM	1110 nM	1130 nM	1.76 nM	
CCc1cc(Nc2ncc(Cl)c(Nc3ccccc3P(C)(C)=O)n2)c(OC)cc1N1CCC(N2CCN(CCCCOc3cc(F)cc4c3CN(C3CCC(=O)NC3=O)C4=O)CC2)CC1 (stereo not drawn)						IC50 ([1]; read-out: LTC IC50, Table 6, 72 h, tested form: formate): 25.5 nM; GI50 (BaF3 (EGFR Del19/C797S); read-out: DC IC50, Table 6, 72 h, tested form: formate): 3.3 nM; IC50 (BaF3 (EGFR WT); read-out: WT IC50, Table 6, 10 ng/ml EGF, 72 h, tested form: formate): 345 nM; IC50 (A431; tested form: formate): 1060 nM
